In patent KR20130034043A, “폴리펩타이드” (애피바디 에이비, priority 2010, dated 2013):

Test system: CD3+ CD4+ T 세포

재조합 인간 알부민: recombinant human albumin (Albucult, Novozymes), negative control
Number of responding individuals compared with buffer only: 2 명
